Target: MAO-B (Bos taurus, UniProt P56560)
Test: Monoamine oxidase B substrate assay, beef liver mitochondria, fluorescence detection of indole product
Details: known inhibitor of MAO-B added

Sequences of proteins named here, by UniProt entry; tags and fusion partners are left off.
UniProt P56560, whole entry: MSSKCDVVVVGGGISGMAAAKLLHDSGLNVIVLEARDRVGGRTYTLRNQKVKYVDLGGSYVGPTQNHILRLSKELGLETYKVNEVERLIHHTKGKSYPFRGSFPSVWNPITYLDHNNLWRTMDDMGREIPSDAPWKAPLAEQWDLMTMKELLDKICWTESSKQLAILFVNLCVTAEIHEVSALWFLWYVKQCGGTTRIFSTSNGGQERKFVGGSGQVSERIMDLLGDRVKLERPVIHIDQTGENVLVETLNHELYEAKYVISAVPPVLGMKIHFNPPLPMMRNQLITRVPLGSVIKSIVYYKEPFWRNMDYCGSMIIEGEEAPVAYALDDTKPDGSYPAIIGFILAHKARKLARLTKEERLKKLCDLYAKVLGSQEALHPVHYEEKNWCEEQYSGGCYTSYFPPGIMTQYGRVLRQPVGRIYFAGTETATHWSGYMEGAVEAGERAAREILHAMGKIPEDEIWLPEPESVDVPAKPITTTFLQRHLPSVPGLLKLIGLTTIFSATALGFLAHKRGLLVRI

For C#CCN(C)[C@H](C)Cc1ccccc1 [Probe 1-deprenyl, 1-deprenyl, reference compound], the “effect on conversion of probe 9 by the mitochondria” value was “abolished”.
